Target: Adenosine receptor A1 (Rattus norvegicus, UniProt P25099)

By UniProt entry, the sequences of proteins in these tests, tags left out.
UniProt P25099, whole entry: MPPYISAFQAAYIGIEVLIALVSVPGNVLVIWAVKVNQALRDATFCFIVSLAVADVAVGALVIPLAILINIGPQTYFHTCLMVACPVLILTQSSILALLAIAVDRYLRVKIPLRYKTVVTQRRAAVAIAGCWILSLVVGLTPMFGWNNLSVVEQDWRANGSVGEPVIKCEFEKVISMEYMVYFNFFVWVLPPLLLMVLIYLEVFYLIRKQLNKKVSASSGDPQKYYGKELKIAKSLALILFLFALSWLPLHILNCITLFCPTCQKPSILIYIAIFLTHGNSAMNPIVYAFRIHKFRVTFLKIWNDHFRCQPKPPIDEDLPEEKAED

`Nc1nc(Nc2ccccc2)nc2c1ncn2[C@@H]1O[C@H](CO)[C@@H](O)[C@H]1O` gave a Ki of 780 nM.
Compound `CCNC(=O)[C@H]1O[C@@H](n2cnc3c(N)nc(NCCc4ccc(CCC(=O)O)cc4)nc32)[C@H](O)[C@@H]1O` [CGS-21680] has a Ki of 1230 nM.

Reference: ChEMBL document CHEMBL1126140, “Nucleosides and nucleotides. 103. 2-Alkynyladenosines: a novel class of selective adenosine A2 receptor agonists with potent antihypertensive effects” (J Med Chem, 1992)
